Test results published in PubChem BioAssay AID1224863 (Southern Research Institute, 2016).
About 15 (0.1%) of roughly 10,000 compounds were called active.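 The calls were made as follows: active = highest signal at least 8 times the median of untreated cell-only control wells at some dose; inactive = the rest.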 Only a sample is shown.

The chains behind the UniProt entries cited, without tags or fusion partners. A line that says so, or that is headed by a name, gives the form on record, which may keep a tag or linker.
UniProt P13569, with tags, fused parts or gaps F508del: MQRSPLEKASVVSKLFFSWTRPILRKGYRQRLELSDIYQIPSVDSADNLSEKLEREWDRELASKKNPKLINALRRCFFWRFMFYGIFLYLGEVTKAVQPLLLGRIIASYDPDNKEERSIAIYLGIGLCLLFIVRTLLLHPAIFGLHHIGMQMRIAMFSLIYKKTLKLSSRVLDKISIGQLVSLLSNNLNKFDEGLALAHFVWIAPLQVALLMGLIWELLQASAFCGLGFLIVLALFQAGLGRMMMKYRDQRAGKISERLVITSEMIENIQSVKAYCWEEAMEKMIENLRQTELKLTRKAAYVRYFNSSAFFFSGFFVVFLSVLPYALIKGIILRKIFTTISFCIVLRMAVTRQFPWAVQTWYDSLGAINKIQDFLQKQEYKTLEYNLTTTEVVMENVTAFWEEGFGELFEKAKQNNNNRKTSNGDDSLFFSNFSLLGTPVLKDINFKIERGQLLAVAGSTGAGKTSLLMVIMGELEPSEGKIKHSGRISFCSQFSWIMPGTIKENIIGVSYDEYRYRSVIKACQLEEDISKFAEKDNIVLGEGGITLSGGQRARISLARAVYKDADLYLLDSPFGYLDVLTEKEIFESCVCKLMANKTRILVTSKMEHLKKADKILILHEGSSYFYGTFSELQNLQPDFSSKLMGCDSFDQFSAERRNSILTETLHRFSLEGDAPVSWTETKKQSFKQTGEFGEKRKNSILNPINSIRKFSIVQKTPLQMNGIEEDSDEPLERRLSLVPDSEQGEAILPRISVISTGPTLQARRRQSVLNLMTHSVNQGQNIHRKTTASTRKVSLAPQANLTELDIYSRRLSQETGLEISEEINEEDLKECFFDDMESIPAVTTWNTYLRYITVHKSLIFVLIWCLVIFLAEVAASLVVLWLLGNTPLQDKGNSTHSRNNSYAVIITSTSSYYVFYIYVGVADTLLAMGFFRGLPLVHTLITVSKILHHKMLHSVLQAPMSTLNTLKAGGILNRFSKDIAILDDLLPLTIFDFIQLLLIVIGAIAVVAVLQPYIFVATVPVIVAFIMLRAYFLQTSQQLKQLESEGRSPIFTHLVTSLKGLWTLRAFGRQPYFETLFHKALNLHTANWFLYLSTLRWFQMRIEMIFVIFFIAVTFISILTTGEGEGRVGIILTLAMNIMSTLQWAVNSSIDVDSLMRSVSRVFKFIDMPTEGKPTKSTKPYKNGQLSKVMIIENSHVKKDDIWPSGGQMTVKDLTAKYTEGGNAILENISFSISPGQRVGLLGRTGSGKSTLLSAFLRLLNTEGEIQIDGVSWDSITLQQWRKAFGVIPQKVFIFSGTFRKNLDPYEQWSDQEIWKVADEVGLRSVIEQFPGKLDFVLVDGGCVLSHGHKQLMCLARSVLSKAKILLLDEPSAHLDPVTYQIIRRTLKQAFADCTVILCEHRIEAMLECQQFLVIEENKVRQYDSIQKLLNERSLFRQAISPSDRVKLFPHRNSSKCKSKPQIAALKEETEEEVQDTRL

Key:
[1] = total CFTR protein upregulators, primary screen, cell-based, HeLa F508del-CFTR, immunofluorescence, viability (AID 1224863); settings: 24 h, stronger effect = higher value; min viability: measured here: HeLa viability, alamarBlue, dose 20, library dosed in µg/mL unless noted; viability: measured here: primary viability 10 ug/mL, library dosed in µg/mL unless noted;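 as to fold increase: total CFTR protein by anti-CFTR immunofluorescence in fixed cells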
[2] = molecular target: Cystic fibrosis transmembrane conductance regulator (Homo sapiens) (UniProt P13569); assay: as above; settings: 24 h; fold increase: measured here: primary screen 10 ug/mL, library dosed in µg/mL, stronger effect = higher value unless noted; max fold increase: dose 10, library dosed in µg/mL, stronger effect = higher value unless noted; outcome: library dosed in µg/mL unless noted

| Structure (SMILES) | viability [1] [%] | fold increase [2] | outcome [2] |
| --- | --- | --- | --- |
| CCCCOCCCNS(=O)(=O)c1ccc(S(=O)(=O)C(F)F)cc1 | 80 | 0.94 | inactive |
| Cc1ccsc1C(=O)N1CCN(S(=O)(=O)N(C)C2CCCCC2)CC1 | 83 | 0.92 | inactive |
| O=C1c2ccccc2C(O)(c2ccc(Cl)cc2)N1CCSCc1ccco1 (stereo not drawn) | 77 | 0.9 | inactive |
| Cn1cc(S(=O)(=O)NC2(c3ccc4c(c3)OCCO4)CCCC2)c(=O)n(C)c1=O | 94 | 1.05 | inactive |
| O=C(NC1CCCCCC1)C1CC=CCC1 (stereo not drawn) | 96 | 1.02 | inactive |
| O=c1c2ccccc2nnn1COc1ccccc1Cl | 116 | 0.98 | inactive |
| CCOCCSc1nnc(-c2ccccc2)n1C | 106 | 1.04 | inactive |
| Fc1ccc2sc(CNc3ccc4nnnn4n3)cc2c1 | 105 | 1.2 | inactive |
| CCN(CC)C(=O)C(C)NC(=O)c1c(C)oc(-n2cccc2)c1C#N (stereo not drawn) | 90 | 0.95 | inactive |
| Cc1noc(C)c1CN1CCCC(NS(C)(=O)=O)C1 (stereo not drawn) | 110 | 1.04 | inactive |
| CC(C)n1nnnc1SCc1ccc([N+](=O)[O-])cc1 | 91 | 0.94 | inactive |
| Clc1ccc(CN2CCN(c3ccc(Br)cn3)CC2)s1 | 105 | 1.02 | inactive |
| O=C(NCCc1ccccc1F)NC1CCSc2ccccc21 (stereo not drawn) | 95 | 1.02 | inactive |
| COc1ccccc1-c1noc(CSC23CC4CC(CC(C4)C2)C3)n1 | 70 | 0.79 | inactive |
| O=S(=O)(Nc1ccc2c(c1)OCCO2)c1cc(F)cc(F)c1 | 97 | 0.92 | inactive |
| O=C(NCCc1ccc2c(c1)OCCO2)NCc1cccnc1OC1CCCC1 | 91 | 0.85 | inactive |
| CCC1CCC2(CC1)NC(=O)N(CC(=O)NCC1CCCO1)C2=O (stereo not drawn) | 102 | 0.98 | inactive |
| Cc1[nH]c2ccccc2c1C(=O)C(C)OC(=O)C12CC3CC(C1)CC(c1ccccc1)(C3)C2 (stereo not drawn) | 85 | 0.91 | inactive |
| CC(C)c1ccc(C(NC(=O)CN2C(=O)NC(C)(c3ccc4c(c3)OCO4)C2=O)C(C)C)cc1 (stereo not drawn) | 81 | 0.84 | inactive |
| Cn1nnn(CN2CCN(c3ccccc3)CC2)c1=S | 101 | 1.1 | inactive |
| CNc1nnc(Sc2nc3cc(C)nn3c3ccccc23)s1 | 97 | 1.1 | inactive |

| Structure (SMILES) | viability [1] [%] | fold increase [2] | outcome [2] |
| --- | --- | --- | --- |
| CN(CC(=O)NC(=O)NCCC1=CCCCC1)Cc1ccc(Cl)s1 | 85 | 0.92 | inactive |
| C#CCOc1ccc(CNC(C)c2ccc(Br)cc2)cc1OCC (stereo not drawn) | 76 | 0.94 | inactive |
| CN(Cc1ccccc1Cl)Cn1ncn(-c2cccc(Cl)c2)c1=S | 105 | 1.04 | inactive |
| Cn1ccnc1COc1ccc(C(=O)O)cc1 | 89 | 1.02 | inactive |
| Cc1cc(-c2nccn2C)c(=O)[nH]n1 | 99 | 1.08 | inactive |
| Cc1cc(NC(=O)N2CCN(C(=O)OC(C)(C)C)CC2)no1 | 102 | 1.12 | inactive |
| CC(C)CN1C(=O)c2ccc([N+](=O)[O-])cc2C1=O | 88 | 0.89 | inactive |
| O=C1NC2(CCCCCC2)C(=O)N1CN1CCCCCCC1 | 76 | 0.99 | inactive |
| Cc1cccc2nc(CSc3ccc4ccccc4n3)cc(=O)n12 | 83 | 1.04 | inactive |
| O=[N+]([O-])c1cn(Cc2cn(-c3ccccc3)nc2-c2ccc(Cl)cc2)cn1 | 103 | 1.3 | inactive |
| O=C(COc1cc(Cl)c(Cl)cc1Cl)N1CCN(C(=O)C2CCCO2)CC1 (stereo not drawn) | 99 | 0.97 | inactive |
| CCN(CC)S(=O)(=O)c1ccc(S(=O)(=O)Nc2nc3ccccc3nc2N2CCCC2)cc1 | 92 | 1.04 | inactive |
| Cc1nnc(COC(=O)C2=Cc3ccccc3OC2)o1 | 102 | 1.03 | inactive |
| CN(C)C(=O)c1ccc(N2CCOC2=O)cc1 | 97 | 0.98 | inactive |
| CCCCn1c(N)c(N(C)C(=O)CCS(=O)(=O)CC(C)C)c(=O)[nH]c1=O | 103 | 1 | inactive |
| CN1CCC(CNC(=O)C23CC4CC(CC(Cl)(C4)C2)C3)c2ccccc21 (stereo not drawn) | 77 | 1.08 | inactive |
| CC(c1nc2ccccc2s1)N(C)CN1C(=O)C2CC=CCC2C1=O (stereo not drawn) | 91 | 1.02 | inactive |
| COC(=O)/C=C/c1ccc(OCC(=O)c2ccc(OC(F)F)cc2)c(OC)c1 | 94 | 1.05 | inactive |
| CCOc1c(Br)cc(CNC(C)C2CCCO2)cc1Br (stereo not drawn) | 99 | 1.09 | inactive |
| Cc1cc(C(C)(C)C)ccc1Oc1ccc2nnnn2n1 | 71 | 1 | inactive |
